Measured values as given in BindingDB's records for patent US10112937 (Janssen Pharmaceutica, 2018).

The chains behind the UniProt entries cited, without tags or fusion partners. Where a name states a change or a piece, a line headed by the entry shows the natural chain unless it says otherwise.
UniProt Q99572: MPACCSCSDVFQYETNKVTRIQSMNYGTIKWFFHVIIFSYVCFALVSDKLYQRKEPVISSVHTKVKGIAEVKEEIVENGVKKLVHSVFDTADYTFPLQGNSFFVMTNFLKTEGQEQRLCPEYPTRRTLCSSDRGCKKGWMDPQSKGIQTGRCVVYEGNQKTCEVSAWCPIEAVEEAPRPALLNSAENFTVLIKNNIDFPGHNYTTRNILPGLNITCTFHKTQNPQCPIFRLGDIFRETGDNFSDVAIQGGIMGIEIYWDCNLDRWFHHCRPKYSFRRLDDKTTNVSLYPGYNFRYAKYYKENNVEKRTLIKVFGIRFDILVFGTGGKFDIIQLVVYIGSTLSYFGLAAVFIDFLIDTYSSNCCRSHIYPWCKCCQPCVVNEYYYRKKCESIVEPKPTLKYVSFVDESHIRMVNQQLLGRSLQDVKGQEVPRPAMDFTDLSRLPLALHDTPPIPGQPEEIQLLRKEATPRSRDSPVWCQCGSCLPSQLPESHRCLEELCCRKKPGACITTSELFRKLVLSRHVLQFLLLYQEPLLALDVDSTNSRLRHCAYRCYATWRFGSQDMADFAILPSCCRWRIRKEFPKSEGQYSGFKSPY

Target: P2X purinoceptor 7 (Homo sapiens, UniProt Q99572)
Test: Cells were seeded at a density of 25000 cells/well (96-well clear bottom black walled plates) in 100 μl volume/well. On the day of the experiment, cell plates were washed with assay buffer, containing (in mM): 130 NaCl, 2 KCl, 1 CaCl2, 1 MgCl2, 10 HEPES, 5 glucose; pH 7.40 and 300 mOs. After the wash, cells were loaded with the Calcium-4 dye (Molecular Device) and incubated in the dark for 60 minutes. Test compounds were prepared at 250× the test concentration in neat DMSO. Intermediate 96-well compound plates were prepared by transferring 1.2 μL of the compound into 300 μL of assay buffer. A further 3× dilution occurred when transferring 50 μL/well of the compound plate to 100 μL/well in the cell plate. Cells were incubated with test compounds and dye for 30 minutes. Calcium dye fluorescence was monitored in FLIPR as the cells were challenged by adding 50 μL/well of BzATP (final concentration is 250 μM BzATP (human and rat)). The fluorescence change was measured 180 seconds after adding the agonist. Peak fluorescence was plotted as a function of BzATP concentration using Origin 7 software.
Details: pH 7.4

- IC50: 1060 nM
SMILES: Cc1cc(C)nc(-n2nnc3c2C=CN(C(=O)c2cccc(Cl)c2Cl)C3C)n1 (stereo unspecified) [US10112937, Example 179]
